Values quoted from earlier work as cited in patent publication US4361573A, “α,α-Diaryl-β-(tert-amino)-propanols and diuretic pharmaceutical compositions containing them” (Temmler AG, priority 1974, dated 1982).

Details: mouse, in vivo, po; cited from earlier work

SMILES: Nc1nc(N)c2nc(-c3ccccc3)c(N)nc2n1 [2.4.7-triamino-6-phenyl-pteridine, reference compound]
- LD50: ca. 300 mg/kg
